Laboratory results from patent publication US4740501A (priority 1985, dated 1988).

How the values were obtained:
[1] = system: L1210 leukemia; assay: L-PAM cross-resistance test: viability after pulse or 24 hour exposure; type: cell-based, mice
[2] = system: L1210/L-PAM leukemia; assay: as above; type: cell-based, mice
[3] = system: P388/L-PAM leukemia; assay: as above; type: cell-based, mice
[4] = system: L1210/L-PAM leukemia cells; assay: Tumorigenicity of in vitro treated leukemia cells in BDF1 recipients; type: in vivo, BDF1 mice; settings: for MST: L1210/L-PAM, control 13
[5] = system: MJY-alpha monolayers; assay: Tumor cell layer viability under viral harvest conditions; type: cell-based; settings: 15.0 uM; 48 hour
[6] = system: L1210 leukemia cells; assay: PTT.119 induced resistance test, long-term low dose culture; settings: L1210-T1 at 37.5 nM for 25 passages
[7] = 3.75 uM, 30 or 60 min exposure, within 4 to 5 days
[8] = 7.5 uM, 30 or 60 min exposure, 6 to 7 days
[9] = read-out: T.C.D.50, treated 24 hours
[10] = treated 24 hours, cultures contained 0.2-3% viable cells at 24 hours
[11] = complete cytolysis at concentration similar to L1210

Compound: L-phenyl-alanine mustard
- elimination of viable population ([1]; 15 uM, 30 or 60 minutes, within 5 days of treatment): could not eliminate all viable cells
- percentage of viable cells ([1]; L1210, 3.75 uM, 30 or 60 min exposure, within 4 to 5 days): 80-90%
- surviving fraction at end of examination period ([1]; L1210, 7.5 uM, 30 or 60 min exposure, 6 to 7 days): 60-80%
- T.C.D.100 ([1]; L1210, treated 24 hours, cultures contained 0.2-3% viable cells at 24 hours): 75.0 µM
- IC50 ([1]; read-out: T.C.D.50, L1210, treated 24 hours): 22.5 µM
- percentage of viable cells [2, 7]: 80-90%
- surviving fraction at end of examination period [2, 8]: 3-20%
- population remaining viable ([2]; 163 uM, 24 hours): approximately 0.2%
- IC50 [2, 9]: 3.8 µM
- T.C.D.100 [2, 10]: 163.0 µM
- percentage of viable cells [3, 7]: 80-90%
- surviving fraction at end of examination period [3, 8]: 7-40%
- population remaining viable ([3]; 163 uM, 24 hours): 3%
- IC50 [3, 9]: 11 µM
- T.C.D.100 [3, 10]: 163.0 µM
- tumorigenicity of L1210/L-PAM cells ([4]; 15 uM for 60 min only): diminution of tumorigenicity
- MST ([4]; 7.5 uM, 30 min): 15 days
- MST ([4]; 7.5 uM, 60 min, TF = Tumor Free): 15 days
- MST ([4]; 15 uM, 15 min): 14 days
- MST ([4]; 15 uM, 30 min): 16 days
- outcome of mice receiving treated L1210/L-PAM cells ([4]; either dose (7.5 or 15 uM) for 15 or 30 min): died of tumor
- Viability compared to control cultures (%) [5]: 96.9%

Compound: CCOC(=O)[C@H](CCSC)NC(=O)[C@H](Cc1cccc(N(CCCl)CCCl)c1)NC(=O)[C@@H](N)Cc1ccc(F)cc1.Cl [PTT.119, 3-(p-fluorophenyl)-L-alanyl-3-[m-bis(2-chloroethyl)aminophenyl]-L-alanyl-L-methionine ethyl ester hydrochloride]
- cross-resistance to the tripeptide [2, 11]: lack of any detectable cross-resistance
- cross-resistance to the tripeptide [3, 11]: lack of any detectable cross-resistance
- induction of resistant L1210 cells [6]: no resistant L1210 cells have been induced
